According to patent US12344614B2, “Benzodiazepine derivatives as GABA a GAMMA1 PAM” (Hoffmann-La Roche Inc., priority 2021, dated 2025):

Target: human GABAA α1β3γ2 receptor (Homo sapiens (Human), UniProt P14867+P18507)
Experiment: Radioligand binding assay, competition for [3H]Flumazenil, HEK293F cells
Details: Ki α1β3γ2 (nM)/Ki α2β2γ1 (nM)
Method: The affinity of compounds at GABAA γ2 subunit-containing receptors was measured by competition for [^3H]Flumazenil (81.1 Ci/mmol; Roche) binding to HEK293F cells expressing human (transiently transfected) receptors of composition α1β3γ2.
Harvested pellets from HEK293F cells expressing the different GABAA γ2 receptor subtypes were resuspended in Mannitol Buffer pH 7.2-7.4 and processed as described above for the cells expressing the GABAA γ1 subunit-containing receptors.
Assays were incubated to equilibrium for 1 hour at 4° C. and harvested onto GF/C uni-filters (Packard) by filtration using a Packard harvester and washing with ice-cold wash buffer (50 mM Tris; pH 7.5). After anhydrousing, filter-retained radioactivity was detected by liquid scintillation counting. Ki values were calculated using Excel-Fit (Microsoft) and are the means of two determinations.

Q: `C[C@@H]1N=C(c2nc(O)ccc2F)c2c(ccc(C(F)(F)F)c2Cl)-n2nc(C(=O)N3CC(F)C3)nc21` [Example 21, [(4S)-7-chloro-6-(3-fluoro-6-hydroxy-2-pyridyl)-4-methyl-8-(trifluoromethyl)-4H-[1,2,4]triazolo[1,5-a][1,4]benzodiazepin-2-yl]-(3-fluoroazetidin-1-yl)methanone] was tested. Which “γ2/γ1 Selectivity Ratio” value did it give?
A: 2538.6
